# Test results as given in patent publication US20160095823A1, “METHODS OF USING PROPOFOL DERIVATIVES FOR ANALGESIA” (priority 2005, published 2016).
# Columns and labels:
# [1] = target: T1, α1 homomeric glycine receptors (Rattus norvegicus, UniProt P07727); test: Direct activation of Cl- inward currents (agonist applied alone), whole-cell patch clamp, HEK 293; format: cell-based
# T1 construct: expressed in transfected cells; host or cells: HEK 293, transient electroporation, cDNA in pCIS2, GFP cDNA co-transfected as marker
# T1 sequence (P07727 29-457): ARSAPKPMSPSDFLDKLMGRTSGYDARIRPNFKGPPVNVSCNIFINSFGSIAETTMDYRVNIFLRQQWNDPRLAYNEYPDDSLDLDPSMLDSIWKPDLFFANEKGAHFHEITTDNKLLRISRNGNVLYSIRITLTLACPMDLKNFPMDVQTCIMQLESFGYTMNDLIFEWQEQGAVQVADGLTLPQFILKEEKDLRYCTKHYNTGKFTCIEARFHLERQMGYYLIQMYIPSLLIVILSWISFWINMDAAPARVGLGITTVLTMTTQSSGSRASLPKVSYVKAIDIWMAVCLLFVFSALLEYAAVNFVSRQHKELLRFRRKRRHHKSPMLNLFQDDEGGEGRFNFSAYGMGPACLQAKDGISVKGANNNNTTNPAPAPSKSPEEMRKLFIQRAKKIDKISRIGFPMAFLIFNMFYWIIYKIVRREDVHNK
# Procedure: (§1) Reduced sensitivity to 1000 μM picrotoxin in α1β heteromeric receptors was used as an assay of the efficacy of β subunit expression. Cells were cultured in Dulbecco's modified Eagle's medium (DMEM, Biochrom, Berlin, Germany), supplemented with 10% fetal calf serum (FCS, Biochrom, Berlin, Germany), 100 U ml^−1 penicillin and 100 μg ml^−1 streptomycin at 37° C. in a 5% CO2/air incubator. For transfection, cells were suspended in a buffer containing 50 mM K2HPO4 and 20 mM K-acetate, pH 7.35. […] To visualize transfected cells, they were co-transfected with cDNA of green fluorescent protein (GFP 10 μg ml^−1). For transfection, we used an electroporation device by EquiBio (Kent, UK). Transfected cells were replated on glass-coverslips and incubated 15-24 h before recording.
# (§2) Standard whole-cell experiments (Hamill et al., (1981) Pflügers Arch., 391, 85-100.) were performed at −30 mV membrane potential. A tight electrical seal of several GΩ formed between the cell membrane and a patch-clamp electrode allows inward currents due to agonist-induced channel activation to resolve in the pA range. Electrical resistance of the pipettes was around 5 MΩ, corresponding to a total access resistance in the whole-cell configuration of about 10 MΩ. […]
# [2] = target: T2, α1β heteromeric glycine receptors (Rattus norvegicus, UniProt P07727); test: as above; format: cell-based
# T2 construct: expressed in transfected cells; host or cells: HEK 293, transient electroporation, α:β cDNA 1:10, pCIS2 vector
# Procedure: as §1, §2
compound,measurement,setting,value
NCC(=O)O [glycine],EC50,[1],12.8 ± 2.3 µM
same,EC50,[2],47 ± 14 µM
